Measured values published in patent US20060160798A1, “Viral polymerase inhibitors” (Boehringer Ingelheim (Canada) Ltd., priority 2001, published 2006).

target: hepatitis C virus RNA dependant polymerase (NS5B) (Hepatitis C virus genotype 1b, UniProt P26663); test: biochemical; details: IC50, Table 7

Row | SMILES | IC50
1 | Cn1c(-c2ccccn2)c(C2CCCC2)c2ccc(C(=O)NC3(C(=O)Nc4ccc(-c5ccc(C(=O)O)s5)cc4)CCC3)cc21 [Entry 7004] | 500 to 1000 nM
2 | Cn1c(-c2ccccn2)c(C2CCCC2)c2ccc(C(=O)NC3(C(=O)Nc4ccc5oc(C(=O)O)cc5c4)CCC3)cc21 [Entry 7006] | < 500 nM
3 | Cn1c(-c2ccccn2)c(C2CCCC2)c2ccc(C(=O)NC3(C(=O)Nc4ccc5c(Cl)c(C(=O)O)sc5c4)CCC3)cc21 [Entry 7007] | < 500 nM
4 | Cn1c(C(=O)O)cc2cc(NC(=O)C3(NC(=O)c4ccc5c(C6CCCC6)c(-c6nccs6)n(C)c5c4)CCC3)ccc21 [Entry 7008] | < 500 nM
5 | Cn1c(-c2ccccn2)c(C2CCCC2)c2ccc(C(=O)NC3(C(=O)Nc4ccc(-c5ccc(C(=O)O)o5)cc4)CCC3)cc21 [Entry 7009] | < 500 nM
6 | Cn1c(-c2ccccn2)c(C2CCCC2)c2ccc(C(=O)NC3(C(=O)Nc4ccc(-c5ccc(C(=O)O)o5)cc4)CCCC3)cc21 [Entry 7010] | < 500 nM
7 | C/C(=C\c1ccc(NC(=O)C2(NC(=O)c3ccc4c(C5CCCC5)c(-c5ccccn5)n(C)c4c3)CCC2)cc1)C(=O)O [Entry 7011] | < 500 nM
8 | Cn1c(C(=O)O)cc2cc(NC(=O)C3(NC(=O)c4ccc5c(C6CCCC6)c(-c6ccccn6)n(C)c5c4)CCC3)ccc21 [Entry 7012] | < 500 nM
9 | Cn1c(-c2cccc(N)c2)c(C2CCCC2)c2ccc(C(=O)NC3(C(=O)Nc4ccc(-c5ccc(C(=O)O)o5)cc4)CCCC3)cc21 [Entry 7013] | < 500 nM
10 | C/C(=C\c1ccc(NC(=O)C2(NC(=O)c3ccc4c(C5CCCC5)c(-c5cccc(N)c5)n(C)c4c3)CCC2)cc1)C(=O)O [Entry 7014] | < 500 nM
11 | Cn1c(C(=O)O)cc2cc(NC(=O)C3(NC(=O)c4ccc5c(C6CCCC6)c(-c6cccc(N)c6)n(C)c5c4)CCC3)ccc21 [Entry 7015] | < 500 nM
12 | Cn1c(-c2ccc(N)cc2)c(C2CCCC2)c2ccc(C(=O)NC3(C(=O)Nc4ccc(-c5ccc(C(=O)O)o5)cc4)CCC3)cc21 [Entry 7016] | < 500 nM
13 | Cn1c(-c2ccc(N)cc2)c(C2CCCC2)c2ccc(C(=O)NC3(C(=O)Nc4ccc(-c5ccc(C(=O)O)o5)cc4)CCCC3)cc21 [Entry 7017] | < 500 nM
14 | C/C(=C\c1ccc(NC(=O)C2(NC(=O)c3ccc4c(C5CCCC5)c(-c5ccc(N)cc5)n(C)c4c3)CCC2)cc1)C(=O)O [Entry 7018] | < 500 nM
15 | Cn1c(-c2ccsc2)c(C2CCCC2)c2ccc(C(=O)NC3(C(=O)Nc4ccc(-c5ccc(C(=O)O)o5)cc4)CCC3)cc21 [Entry 7019] | < 500 nM
16 | Cc1cccc(-c2c(C3CCCC3)c3ccc(C(=O)NC4(C(=O)Nc5ccc(-c6ccc(C(=O)O)o6)cc5)CCC4)cc3n2C)n1 [Entry 7020] | < 500 nM
17 | Cc1cccc(-c2c(C3CCCC3)c3ccc(C(=O)NC4(C(=O)Nc5ccc(-c6ccc(C(=O)O)o6)cc5)CCCC4)cc3n2C)n1 [Entry 7021] | < 500 nM
18 | C/C(=C\c1ccc(NC(=O)C2(NC(=O)c3ccc4c(C5CCCC5)c(-c5cccc(C)n5)n(C)c4c3)CCC2)cc1)C(=O)O [Entry 7022] | < 500 nM
19 | Cc1cccc(-c2c(C3CCCC3)c3ccc(C(=O)NC4(C(=O)Nc5ccc6c(c5)cc(C(=O)O)n6C)CCC4)cc3n2C)n1 [Entry 7023] | < 500 nM
20 | Cn1c(-c2cccc(N)n2)c(C2CCCC2)c2ccc(C(=O)NC3(C(=O)Nc4ccc(-c5ccc(C(=O)O)o5)cc4)CCC3)cc21 [Entry 7024] | < 500 nM
21 | Cn1c(-c2cccc(N)n2)c(C2CCCC2)c2ccc(C(=O)NC3(C(=O)Nc4ccc(-c5ccc(C(=O)O)o5)cc4)CCCC3)cc21 [Entry 7025] | < 500 nM

Row | SMILES | IC50
22 | C/C(=C\c1ccc(NC(=O)C2(NC(=O)c3ccc4c(C5CCCC5)c(-c5cccc(N)n5)n(C)c4c3)CCC2)cc1)C(=O)O [Entry 7026] | < 500 nM
23 | Cn1c(C(=O)O)cc2cc(NC(=O)C3(NC(=O)c4ccc5c(C6CCCC6)c(-c6cccc(N)n6)n(C)c5c4)CCC3)ccc21 [Entry 7027] | < 500 nM
24 | Cc1ccc(-c2c(C3CCCC3)c3ccc(C(=O)NC4(C(=O)Nc5ccc(-c6ccc(C(=O)O)o6)cc5)CCC4)cc3n2C)nc1 [Entry 7028] | < 500 nM
25 | Cc1ccc(-c2c(C3CCCC3)c3ccc(C(=O)NC4(C(=O)Nc5ccc(-c6ccc(C(=O)O)o6)cc5)CCCC4)cc3n2C)nc1 [Entry 7029] | < 500 nM
26 | C/C(=C\c1ccc(NC(=O)C2(NC(=O)c3ccc4c(C5CCCC5)c(-c5ccc(C)cn5)n(C)c4c3)CCC2)cc1)C(=O)O [Entry 7030] | < 500 nM
27 | Cc1ccc(-c2c(C3CCCC3)c3ccc(C(=O)NC4(C(=O)Nc5ccc6c(c5)cc(C(=O)O)n6C)CCC4)cc3n2C)nc1 [Entry 7031] | < 500 nM
28 | Cc1ccc(-c2c(C3CCCC3)c3ccc(C(=O)NC4(C(=O)Nc5ccc(-c6ccc(C(=O)O)o6)cc5)CCC4)cc3n2C)cn1 [Entry 7032] | < 500 nM
29 | C/C(=C\c1ccc(NC(=O)C2(NC(=O)c3ccc4c(C5CCCC5)c(-c5ccc(C)nc5)n(C)c4c3)CCC2)cc1)C(=O)O [Entry 7034] | < 500 nM
30 | Cc1ccc(-c2c(C3CCCC3)c3ccc(C(=O)NC4(C(=O)Nc5ccc6c(c5)cc(C(=O)O)n6C)CCC4)cc3n2C)cn1 [Entry 7035] | < 500 nM
31 | Cn1c(-c2cnccn2)c(C2CCCC2)c2ccc(C(=O)NC3(C(=O)Nc4ccc(-c5ccc(C(=O)O)o5)cc4)CCC3)cc21 [Entry 7036] | < 500 nM
32 | Cn1c(-c2cnccn2)c(C2CCCC2)c2ccc(C(=O)NC3(C(=O)Nc4ccc(-c5ccc(C(=O)O)o5)cc4)CCCC3)cc21 [Entry 7037] | < 500 nM
33 | C/C(=C\c1ccc(NC(=O)C2(NC(=O)c3ccc4c(C5CCCC5)c(-c5cnccn5)n(C)c4c3)CCC2)cc1)C(=O)O [Entry 7038] | < 500 nM
34 | Cn1c(-c2ccncc2)c(C2CCCC2)c2ccc(C(=O)NC3(C(=O)Nc4ccc(-c5ccc(C(=O)O)o5)cc4)CCC3)cc21 [Entry 7040] | < 500 nM
35 | Cn1c(-c2ccncc2)c(C2CCCC2)c2ccc(C(=O)NC3(C(=O)Nc4ccc(-c5ccc(C(=O)O)o5)cc4)CCCC3)cc21 [Entry 7041] | < 500 nM
36 | CCc1ccnc(-c2c(C3CCCC3)c3ccc(C(=O)NC4(C(=O)Nc5ccc(-c6ccc(C(=O)O)o6)cc5)CCC4)cc3n2C)c1 [Entry 7042] | 1000 to 10000 nM
37 | CCc1ccnc(-c2c(C3CCCC3)c3ccc(C(=O)NC4(C(=O)Nc5ccc(-c6ccc(C(=O)O)o6)cc5)CCCC4)cc3n2C)c1 [Entry 7043] | 1000 to 10000 nM
38 | CCc1ccnc(-c2c(C3CCCC3)c3ccc(C(=O)NC4(C(=O)Nc5ccc(/C=C(\C)C(=O)O)cc5)CCC4)cc3n2C)c1 [Entry 7044] | 1000 to 10000 nM
39 | CCc1ccnc(-c2c(C3CCCC3)c3ccc(C(=O)NC4(C(=O)Nc5ccc6c(c5)cc(C(=O)O)n6C)CCC4)cc3n2C)c1 [Entry 7045] | 1000 to 10000 nM
40 | CC(=O)Nc1c(C(=O)O)sc2ccc(NC(=O)C3(NC(=O)c4ccc5c(C6CCCC6)c(-c6ccccn6)n(C)c5c4)CCC3)cc12 [Entry 7046] | < 500 nM
41 | Cn1c(-c2nccs2)c(C2CCCC2)c2ccc(C(=O)NC3(C(=O)Nc4ccc(-c5ccc(C(=O)O)o5)cc4)CCC3)cc21 [Entry 7047] | < 500 nM
42 | Cn1c(-c2nccs2)c(C2CCCC2)c2ccc(C(=O)NC3(C(=O)Nc4ccc(-c5ccc(C(=O)O)o5)cc4)CCCC3)cc21 [Entry 7048] | < 500 nM

Row | SMILES | IC50
43 | C/C(=C\c1ccc(NC(=O)C2(NC(=O)c3ccc4c(C5CCCC5)c(-c5nccs5)n(C)c4c3)CCC2)cc1)C(=O)O [Entry 7049] | < 500 nM
44 | Cn1c(-c2cccc(N)c2)c(C2CCCC2)c2ccc(C(=O)NC3(C(=O)Nc4ccc(-c5ccc(C(=O)O)o5)cc4)CCC3)cc21 [Entry 7050] | < 500 nM
45 | Cn1c(C(=O)O)cc2cc(NC(=O)C3(NC(=O)c4ccc5c(C6CCCC6)c(-c6ccc(N)cc6)n(C)c5c4)CCC3)ccc21 [Entry 7051] | < 500 nM
46 | Cn1c(-c2ccsc2)c(C2CCCC2)c2ccc(C(=O)NC3(C(=O)Nc4ccc(-c5ccc(C(=O)O)o5)cc4)CCCC3)cc21 [Entry 7052] | < 500 nM
47 | C/C(=C\c1ccc(NC(=O)C2(NC(=O)c3ccc4c(C5CCCC5)c(-c5ccsc5)n(C)c4c3)CCC2)cc1)C(=O)O [Entry 7053] | < 500 nM
48 | Cn1c(C(=O)O)cc2cc(NC(=O)C3(NC(=O)c4ccc5c(C6CCCC6)c(-c6ccsc6)n(C)c5c4)CCC3)ccc21 [Entry 7054] | < 500 nM
49 | Cn1c(-c2ccccn2)c(C2CCCC2)c2ccc(C(=O)NC3(C(=O)Nc4ccc(-c5cncnc5)cc4)CCC3)cc21 [Entry 7055] | 500 to 1000 nM
50 | Cn1c(-c2ccccn2)c(C2CCCC2)c2ccc(C(=O)NC(C)(C)C(=O)Nc3nc4cc(C(=O)O)ccc4n3C3CCCCC3)cc21 [Entry 7056] | 1000 to 10000 nM
51 | Cc1c(C(=O)O)sc2ccc(NC(=O)[C@]3(NC(=O)c4ccc5c(C6CCCC6)c(-c6ccccn6)n(C)c5c4)CCN(C)C3)cc12 [Entry 7057] | < 500 nM
52 | CN1CC[C@@](NC(=O)c2ccc3c(C4CCCC4)c(-c4ccccn4)n(C)c3c2)(C(=O)Nc2ccc(/C=C/C(=O)O)cc2)C1 [Entry 7058] | < 500 nM
53 | Cn1c(-c2ccccn2)c(C2CCCC2)c2ccc(C(=O)N[C@@]3(C(=O)Nc4ccc(-c5cnc(N)nc5)cc4)CCNC3)cc21 [Entry 7059] | < 500 nM
54 | CC(C)N1CCC(NC(=O)c2ccc3c(C4CCCC4)c(-c4ccccn4)n(C)c3c2)(C(=O)Nc2ccc(C=CC(=O)O)cc2)C1 (stereo not shown) [Entry 7060] | < 500 nM
55 | Cc1c(C(=O)O)sc2ccc(NC(=O)[C@]3(NC(=O)c4ccc5c(C6CCCC6)c(-c6cnccn6)n(C)c5c4)CCN(C)C3)cc12 [Entry 7061] | < 500 nM
56 | Cn1c(-c2ccccn2)c(C2CCCC2)c2ccc(C(=O)NC3(C(=O)Nc4nc5cc(C(=O)O)ccc5[nH]4)CCC3)cc21 [Entry 7062] | < 500 nM
57 | CN(C)c1csc2ccc(NC(=O)C3(NC(=O)c4ccc5c(C6CCCC6)c(-c6ccccn6)n(C)c5c4)CCC3)cc12 [Entry 7063] | 500 to 1000 nM
58 | Cc1c(C(=O)O)sc2ccc(NC(=O)C3(NC(=O)c4ccc5c(C6CCCC6)c(-c6ccccn6)n(C)c5c4)CCC3)cc12 [Entry 7064] | < 500 nM
59 | Cn1c(-c2ccccn2)c(C2CCCC2)c2ccc(C(=O)NC3(C(=O)Nc4ccc(-c5cnc(N)nc5)cc4)CCC3)cc21 [Entry 7065] | 500 to 1000 nM
60 | Cc1nc(-c2ccc(C(=O)O)s2)ccc1NC(=O)C1(NC(=O)c2ccc3c(C4CCCC4)c(-c4ccccn4)n(C)c3c2)CCC1 [Entry 7066] | 1000 to 10000 nM
61 | CN1CC[C@@](NC(=O)c2ccc3c(C4CCCC4)c(-c4ccccn4)n(C)c3c2)(C(=O)Nc2ccc(-c3cnc(N)nc3)cc2)C1 [Entry 7067] | < 500 nM
